PubChem BioAssay AID720704 (The Scripps Research Institute Molecular Screening Center, 2013)
This is a selection; strong and weak results do not stand in their true shares. Active and inactive are the calls of the source. No stated cut-off is given here; in the data, active means inhibition above about 11%; inactive means the rest.

Sequences of proteins named here, by UniProt entry; tags and fusion partners are left off.
UniProt Q01970, whole entry: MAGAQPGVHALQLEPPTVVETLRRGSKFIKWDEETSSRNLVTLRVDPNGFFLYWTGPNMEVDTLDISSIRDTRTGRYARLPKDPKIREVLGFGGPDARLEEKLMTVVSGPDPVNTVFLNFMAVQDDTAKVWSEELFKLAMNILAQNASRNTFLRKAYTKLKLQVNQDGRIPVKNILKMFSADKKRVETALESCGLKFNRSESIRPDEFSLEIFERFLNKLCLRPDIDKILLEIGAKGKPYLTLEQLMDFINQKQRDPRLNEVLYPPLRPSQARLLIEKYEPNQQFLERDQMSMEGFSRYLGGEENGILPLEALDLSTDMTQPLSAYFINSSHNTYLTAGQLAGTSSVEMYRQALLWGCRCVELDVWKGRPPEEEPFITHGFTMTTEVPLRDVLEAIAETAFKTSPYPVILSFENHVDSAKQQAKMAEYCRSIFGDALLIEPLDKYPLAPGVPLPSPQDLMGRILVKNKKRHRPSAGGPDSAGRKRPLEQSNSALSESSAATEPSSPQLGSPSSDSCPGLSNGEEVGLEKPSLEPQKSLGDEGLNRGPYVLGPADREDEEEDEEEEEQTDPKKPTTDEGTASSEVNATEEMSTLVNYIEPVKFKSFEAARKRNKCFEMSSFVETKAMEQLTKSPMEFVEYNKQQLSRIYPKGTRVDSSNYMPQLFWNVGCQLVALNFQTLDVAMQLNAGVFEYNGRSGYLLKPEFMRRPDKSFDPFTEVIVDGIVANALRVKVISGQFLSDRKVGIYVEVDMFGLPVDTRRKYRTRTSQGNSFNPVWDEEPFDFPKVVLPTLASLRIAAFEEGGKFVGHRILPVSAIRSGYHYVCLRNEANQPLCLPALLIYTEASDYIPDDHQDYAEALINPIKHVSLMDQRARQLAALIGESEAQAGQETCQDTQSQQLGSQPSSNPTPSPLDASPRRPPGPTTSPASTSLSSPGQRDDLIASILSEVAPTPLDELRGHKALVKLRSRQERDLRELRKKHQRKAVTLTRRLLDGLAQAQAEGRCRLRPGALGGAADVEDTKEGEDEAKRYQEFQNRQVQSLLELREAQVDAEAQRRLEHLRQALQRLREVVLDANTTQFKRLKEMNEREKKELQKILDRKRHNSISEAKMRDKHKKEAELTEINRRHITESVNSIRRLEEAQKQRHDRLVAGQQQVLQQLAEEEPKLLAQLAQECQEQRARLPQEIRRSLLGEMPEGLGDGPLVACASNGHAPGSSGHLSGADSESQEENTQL

Target: 1-phosphatidylinositol 4,5-bisphosphate phosphodiesterase beta-3 (Homo sapiens) (UniProt Q01970)
Experiment: phospholipase C beta3 enzyme inhibition – biochemical, fluorescence, primary screen (AID 720704);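 further: 0% = median of compound wells on plate and 100% = full blocker control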
Conditions: Purified PLC-beta3, fluorogenic substrate, at 12.2 µM, stronger effect = higher value

| SMILES | inhibition |
| --- | --- |
| CCCCn1nnnc1C(c1ccnc2ccccc12)N1CCC(n2c(=O)[nH]c3ccccc32)CC1 (stereo unspecified) | inactive: 1.84% |
| CCC(c1nnnn1C(C)(C)C)N1CCC(n2c(=O)[nH]c3ccccc32)CC1 (stereo unspecified) | inactive: -1.09% |
| O=C(NCC1(N2CCOCC2)CCCCC1)c1cc(F)c(F)cc1Cl | inactive: -3.25% |
| COc1cc(OC)c(C(=O)NCC2(N(C)C)CCCCC2)cc1OC | inactive: -8.84% |
| CN(C)c1cccc(C(=O)NCC2(N3CCCCC3)CCCCC2)c1 | inactive: -78.6% |
| COC(=O)C1(Nc2ccccc2)CCN(Cc2ccccc2)CC1 | inactive: 3.49% |
| COc1ccc(CN(CCCl)CCCl)cc1Cl | inactive: -2.07% |
| CC(C)c1ccc(NC2CCN(C(=O)OC(C)(C)C)CC2)cc1 | inactive: -7.08% |
| CCCOc1ccc(C(=O)NCC2(N(C)C)CCCCC2)cc1OC | inactive: -6.89% |
| Cc1ccc(C(=O)NCC2(N(C)C)CCCCC2)o1 | inactive: 5.67% |
| COc1ccc(C(c2nnnn2C2CCCC2)N2CCC(n3c(=O)[nH]c4ccccc43)CC2)cc1 (stereo unspecified) | inactive: 2.92% |
| O=C(NCC1(N2CCCCC2)CCCCC1)c1cncc(Br)c1 | inactive: -6.51% |
| CN1CCC(Nc2cccc(F)c2)CC1 | inactive: 7.48% |
| O=C(NCC1(N2CCCCC2)CCCCC1)c1cccc([N+](=O)[O-])c1 | inactive: -5.28% |
| CSc1ccc(C(=O)NCC2(N3CCOCC3)CCCCC2)cc1 | inactive: 5.62% |
| N#CC1(Nc2ccccc2)CCN(CCc2ccccc2)CC1 | inactive: 4.06% |
| O=c1[nH]c2ccccc2n1C1CCN(C(c2ccccc2OC(F)(F)F)c2nnnn2C2CCCC2)CC1 (stereo unspecified) | inactive: 0.91% |
| CCN1CCC(Nc2ccc(Cl)cc2)CC1 | inactive: -3.5% |
| O=C(NCC1(N2CCCCC2)CCCCC1)c1ccc(OC(F)F)cc1 | inactive: -5.6% |
| CC(C)(C)n1nnnc1C(c1ccccc1OC(F)(F)F)N1CCC(n2c(=O)[nH]c3ccccc32)CC1 (stereo unspecified) | inactive: 3.08% |
| CCCCn1nnnc1C(c1cccc2ccccc12)N1CCC(n2c(=O)[nH]c3ccccc32)CC1 (stereo unspecified) | inactive: -1.5% |
| CC(C)c1ccc(C(=O)NCC2(N3CCOCC3)CCCCC2)cc1 | inactive: -3.42% |
| COc1ccc(NC2CCN(C(=O)OC(C)(C)C)CC2)cc1 | inactive: -6.12% |
| CN1CCN(CCOC(=O)C(O)(c2ccccc2)c2ccccc2)CC1 | inactive: 2.98% |
| O=C(NCC1(N2CCOCC2)CCCCC1)c1cc(=O)[nH]c2ccccc12 | inactive: -6.17% |
| COc1cc(C(=O)NCC2(N3CCCCC3)CCCCC2)ccc1OC(F)F | inactive: -0.77% |
